Values of other authors, collected in patent publication US7235583B1, “Fatty acid-anticancer conjugates and uses thereof” (Luitpold Pharmaceuticals, Inc.,, priority 1999, dated 2007).

Settings: infusion in humans; cited from earlier work

SMILES: CC(=O)O[C@H]1C(=O)[C@@]2(C)[C@H]([C@H](OC(=O)c3ccccc3)[C@]3(O)C[C@H](OC(=O)[C@H](O)[C@@H](NC(=O)c4ccccc4)c4ccccc4)C(C)=C1C3(C)C)[C@]1(OC(C)=O)CO[C@@H]1C[C@@H]2O [paclitaxel, reference compound]
- maximum tolerated dose (MTD): 225 mg/m^2
